Data on five molecules can be found in ChEMBL document CHEMBL3272301, “Improved delivery through biological membranes. 2. Distribution, excretion, and metabolism of N-methyl-1,6-dihydropyridine-2-carbaldoxime hydrochloride, a pro-drug of N-methylpyridinium-2-carbaldoxime chloride” (1976).

Molecules are shown by their SMILES.

As a reminder, the pKa is the negative logarithm of the acid dissociation constant.

In data set [1] the test system is Plasma. The experiment in a line: Plasma concentration in beagle dog at 5 mg/kg, iv measured after 120 mins. The settings on record: in vivo, 2 h, strain beagle.
The nature of data set [2]: Drug excretion in beagle dog urine at 43.9 mg/kg, po. The settings on record: in vivo, strain beagle.
Data set [3] is described as follows: Drug excretion in po dosed human. To be noted: in vivo.
The nature of data set [4]: Drug excretion in iv dosed beagle dog urine treated with [14C]-labelled N-Methyl-1,6-dihydropyridine-2-carbaldoxime hydrochloride by radiochromatography. To be noted: in vivo, strain beagle.
Data set [5] is described as follows: Drug excretion in po dosed beagle dog urine treated with [14C]-labelled N-Methyl-1,6-dihydropyridine-2-carbaldoxime hydrochloride by radiochromatography. The settings on record: in vivo, strain beagle.
A short description of data set [6]: Retardation factor of the compound.
Data set [7] in a line: Drug excretion in human at 1 g, po. To be noted: in vivo.
In data set [8] the test system is Plasma. The experiment in a line: Plasma concentration in beagle dog at 5 mg/kg, iv measured after 10 mins. To be noted: in vivo, strain beagle.
A short description of data set [9]: Drug excretion in beagle dog urine assessed as radioactivity at 7 mg/kg, iv by liquid scintillation counting. The settings on record: in vivo, strain beagle.
Data set [10] in a line: Drug excretion in po dosed beagle dog urine by radiochromatography. The settings on record: in vivo, strain beagle.
Data set [11] is described as follows: Drug excretion in po dosed beagle dog urine. The settings on record: in vivo, strain beagle.
Data set [12] is described as follows: Drug excretion in beagle dog feces at 43.9 mg/kg, po. The settings on record: in vivo, strain beagle.
Data set [13] can be described thus: Drug level in beagle dog whole blood at 5 mg/kg, iv measured after 5 mins. To be noted: in vivo, strain beagle.
Data set [14] can be described thus: Drug excretion in po dosed beagle dog urine assessed as metabolite formation treated with [14C]-labelled N-Methyl-1,6-dihydropyridine-2-carbaldoxime hydrochloride by radiochromatography. The settings on record: in vivo, strain beagle.
Data set [15] can be described thus: Dissociation constant, pKa of the compound.
A short description of data set [16]: Drug excretion in beagle dog urine assessed as radioactivity treated with [14C]-labelled N-Methyl-1,6-dihydropyridine-2-carbaldoxime hydrochloride at 4.5 mg/kg, iv by liquid scintillation counting. The settings on record: in vivo, strain beagle.
Data set [17] can be described thus: Drug excretion in po dosed beagle dog urine assessed as metabolite formation by radiochromatography. To be noted: in vivo, strain beagle.
A short description of data set [18]: Drug excretion in iv dosed beagle dog urine assessed as metabolite formation treated with [14C]-labelled N-Methyl-1,6-dihydropyridine-2-carbaldoxime hydrochloride by radiochromatography. To be noted: in vivo, strain beagle.

As for `C[n+]1ccccc1/C=N/O.[Cl-]`, the Cp in the data set with Plasma [1] came to 800 ng/mL; with Plasma [8], 11500 ng/mL. The Drug excretion in [2] was 79.8%; in [3], 27%; in data set [4], 66%; in data set [5], 50%; in [7], 34%; in [9], 92.2 %ID. For the same molecule, the Drug excretion came to 87% in data set [10], 65% in data set [11] and 62.1% in data set [12]. For the same molecule, the Rf in data set [6] came out at 0.53. Besides, the Drug uptake in data set [13] is 5500 ng/mL.

`C[n+]1ccccc1C#N` had a Rf in [6] of 0.08.

Regarding `Cn1ccc(=O)cc1C(N)=O`, the Drug excretion in [14] was determined as 15 %ID. Also, the Rf in [6] was 0.08.

`CN1CC=CC=C1/C=N/O.Cl` yielded a pKa in [15] of 6.32. The Drug excretion in data set [16] stood at 98 %ID; in [14] it was 35 %ID; in data set [17], 13 %ID; in [18], 34 %ID. This molecule also gave a Rf in data set [6] of 0.33.

In the case of `Cn1ccccc1=O`, the Drug excretion in data set [14] was found to be 15 %ID. Further, the Rf in data set [6] came to 0.08.
